Results as given in patent US20160060354A1 (Sanofi, published 2016).

Molecular target: T1, TEM1 on SJSA-1 and A673 cells (UniProt Q9HCU0 18-757, limits assumed)
T1 sequence (looked up): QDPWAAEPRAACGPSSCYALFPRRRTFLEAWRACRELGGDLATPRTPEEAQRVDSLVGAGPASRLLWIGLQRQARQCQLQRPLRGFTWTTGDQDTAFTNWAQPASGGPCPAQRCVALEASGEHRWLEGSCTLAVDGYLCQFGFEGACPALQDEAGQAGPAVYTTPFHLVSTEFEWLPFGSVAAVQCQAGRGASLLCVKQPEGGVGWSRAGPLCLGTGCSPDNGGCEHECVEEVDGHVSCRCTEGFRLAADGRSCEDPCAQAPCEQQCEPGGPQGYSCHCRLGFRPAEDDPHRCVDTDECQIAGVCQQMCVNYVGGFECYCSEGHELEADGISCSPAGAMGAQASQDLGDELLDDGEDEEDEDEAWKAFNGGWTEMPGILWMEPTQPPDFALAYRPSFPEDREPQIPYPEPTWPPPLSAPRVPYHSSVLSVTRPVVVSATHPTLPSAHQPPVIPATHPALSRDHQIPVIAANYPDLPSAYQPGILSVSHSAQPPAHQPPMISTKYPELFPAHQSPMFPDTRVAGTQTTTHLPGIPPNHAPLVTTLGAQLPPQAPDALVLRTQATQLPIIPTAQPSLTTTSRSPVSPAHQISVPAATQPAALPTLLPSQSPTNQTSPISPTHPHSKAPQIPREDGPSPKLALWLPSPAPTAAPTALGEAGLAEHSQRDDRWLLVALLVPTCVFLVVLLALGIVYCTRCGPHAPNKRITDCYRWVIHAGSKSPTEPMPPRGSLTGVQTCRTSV
Test: cell-based or functional assay

B1: antiTEM1-MC-VC-PABC-MMAE (antibody)
heavy: QVQLQESAPGLVKPSETLSLTCTVSGGSIRSYYWSWIRQPPGKGLEYIGYIYYTGSAIYNPSLQSRVTISVDTSKNQFSLKLNSVTAADTAVYYCAREGVRGASGYYYYGMDVWGQGTTVTVSSASTKGPSVFPLAPSSKSTSGGTAALGCLVKDYFPEPVTVSWNSGALTSGVHTFPAVLQSSGLYSLSSVVTVPSSSLGTQTYICNVNHKPSNTKVDKKV[here human IgG1 Fc without letters]
light: not shown
modifications: MC-VC-PABC-MMAE by thiol conjugation; DAR not given
IC50, cell proliferation assay, A673-DMEM-RPMI cells: 0.9 µg/mL | IC50, cell proliferation assay, A673-RPMI cells: 1 µg/mL | IC50, cell proliferation assay, SJSA-1 cells: 4 µg/mL
